From US20150038588A1, “COMPOSITIONS AND METHODS OF TREATMENT OF STATUS EPILEPTICUS” (published 2015) come the findings set out here.

The assay concerns soman-induced seizures. The experiment in a line: soman-induced seizure (SE) delayed treatment model, anticonvulsant test with EEG. Particulars: for ED50 for anticonvulsant effect: IP, rats; for latency for seizure control (administration to last epileptiform event on EEG): 20 min versus 40 min treatment time.

“And” between values parts separate entries of the source, which are not always exact repeats. Equal entries are not always repeated.

Regarding `CCC(C)C(CC)C(N)=O` (stereo not drawn), the “latency for seizure control (administration to last epileptiform event on EEG)” value is “shorter latency at the 20 min treatment time than the 40 min treatment time”. In addition, the “ED50 for anticonvulsant effect” value (5 min treatment delay after seizure onset) is 25.8 mg/kg. For the same compound, for the setting “20 min treatment delay after seizure onset”, the “ED50 for anticonvulsant effect” value is 60 mg/kg and 60.0 mg/kg. Also, for the setting “listed as valnoctamide (VCD)”, the “latency for seizure control (administration to last epileptiform event on EEG)” value is listed as “shorter latency at the 20-min treatment time than the 40-min treatment time”. For the same compound, where the note is “40 min treatment delay after seizure onset”, the “ED50 for anticonvulsant effect” value was 62 mg/kg and 62.0 mg/kg. In addition, where the note is “all three test delay times (5, 20, 40 min)”, the anticonvulsant effect result is listed as “robust anticonvulsant effects”.
